This note sets out measurements from patent publication US10524471B2, “Compositions and methods for increasing salt tolerance in plants” (King Abdullah University of Science and Technology, priority 2016, dated 2020).

This assay deals with Arabidopsis seedlings. Nature of the assay: Arabidopsis salt stress tolerance assay (½ MS + 100 mM NaCl). In kind it is in vivo, Arabidopsis thaliana. The following applies: SA187-inoculated plants cultivated with 3 μM DNPH.

With `NNc1ccc([N+](=O)[O-])cc1[N+](=O)[O-]`, the “SA187-induced salt tolerance (beneficial index)” value amounted to 14%.
